Tested on: hippocampal slices
Assay: Slice seizure assay (population spikes in hippocampal slices)
Details: perfusion of slices; 200 μM is the limit of solubility of CX1739

With picrotoxin the “Concentration at which seizure activity is seen in hippocampal slices” value was 50 µM.

— patent US20240100023A1, “Compositions and Methods For Treating Spinal Cord Injuries” (priority 2020, published 2024)
